From PubChem BioAssay
Hits are enriched below; roughly 0.62% of the tested compounds scored in any of these assays.
IL2 activator – IL-2 activation. IL-2 activation reporter assay, cell-based qHTS; stimulated with anti-CD3/CD4/CD28 beads; in transgenic mouse T cells. activation, % (series mostly up to about 46 µM). 0.065% of 360,000 active. AID 652025; in the data active = activation above about 50%; inconclusive = mostly about 30% to 49%; also: 0% is about no effect
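EGFP and DsRed fluorescence is measured by plate cytometry in unstimulated transgenic mouse T cells exposed to compound for 60 minutes, then stimulated 18 hours at 37 degrees C with anti-CD3/anti-CD4 beads plus anti-CD28.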
miR-21 reporter – miR-21 reporter, rising signal | HeLa miR-21 FLuc reporter, luciferase, 48 h | Potency, µM (top dose mostly 38.3 µM), inactives show at the highest dose reporter change, positive = more light | 340,000 tested, under 10 active | AID 2288; active = well fitted rising curve with a large enough effect; inconclusive = small, poorly fitted or top-dose-only effect; inactive = no such curve, though single readings can be large or run the other way;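 note: % of control where 0% means no effect; miR-21 action dims this reporter so a rising signal means less miR-21 action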
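Luminescence from a firefly luciferase reporter carrying a miR-21 binding site downstream, stably expressed under a CMV promoter in HeLa cells that make miR-21 endogenously, reports miRNA modulation after 48 h compound exposure up to approximately 40uM final.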
uPA surface inh – inhibitors of cell surface uPA generation. 0.31% of 330,000 active. cell surface uPA generation assay, qHTS. Potency, µM (series often up to 38.3 µM), without a hit: top-dose activity change, negative = inhibition, usual class: inhibitors; active = well fitted inhibition curve with a large enough effect; inconclusive = small, poorly fitted or top-dose-only effect; inactive = no such curve, though single readings can be large or run the other way; tested in mouse RAW 264.7 cells; also: potency is read from the fitted curve at half-maximal effect; % is scaled to controls: 0 for no effect and ±100 for the full control effect; nearly all actives have a fitted effect of over 55% in size
p53 reactivator – re-activators of mutant p53; H1299 p53-A138V BP100-luciferase reporter, luminescence, 24 h; Potency, µM (doses to about 92.2 µM), for inactives: at the top dose activity change, positive = activation, most hits filed as activators; 0.063% of 320,000 active; also: potency is read from the fitted curve at half-maximal effect; % of control where 0% means no effect; nearly all actives have a fitted effect of over 45% in size
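H1299 (p53-null), stable ts p53-A138V + BP100-Luc; 1000 cells/well, Opti-MEM/10% FBS; cpd 4 pt, 1:5; 24 h, 37 deg C, 5% CO2; detection reagent 10 min RT; luminescence.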
Epigenetic derep – regulators of epigenetic silencing causing reporter derepression in mouse cells; 0.2% of 280,000 active; Potency, µM (titrated, usually from 53.9 µM), for the others: at the top dose GFP activation, actives largely listed as activators; murine LDR cells, GFP reporter derepression, 30 h; also: potency is read from the fitted curve at half-maximal effect; % of control where 0% means no effect; nearly all actives have a fitted effect of over 60% in size
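GFP-positive cell count by laser-scanning cytometry (objects 20–120 um) after 30 h, 37 C compound exposure of murine LDR cells; reporter is CMV-GFP integrated at a silenced locus, inducible by HDAC or DNMT inhibitors.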
PINK1 modulator – modulators of PINK1 expression | 0.2% of 410,000 active | PINK1 immunofluorescence, high-content cytometry, 24 h | AID 624263 | Potency, µM (series often up to 76.6 µM), for inactives: at the highest dose activation (PINK1 increase), actives largely listed as activators; active = well fitted activation curve with a large enough effect; inconclusive = small, poorly fitted or top-dose-only effect; cell line not stated here; also: potency is read from the fitted curve at half-maximal effect; % of control where 0% means no effect; nearly all actives have a fitted effect of over 65% in size
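A stable cell line was treated with compounds at 5 concentrations for 24 hours, with CCCP as control. PINK1 levels and mitochondrial localization were measured by immunofluorescence with mitochondrial, cell and nuclear markers after fixation, read by laser-scanning cytometry.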
* hit, by the source's call; u = inconclusive; x = no result given. Unless noted, calls follow the shape of the dose curve; as a rule, active = well fitted curve in the direction sought with a large enough effect; inconclusive = small, poorly fitted or top-dose-only effect, or another doubt; inactive = no such curve, though single readings can be large; an effect the other way counts as inactive or inconclusive.

Sequence of screens – IL2 activator, miR-21 reporter, uPA surface inh, p53 reactivator, Epigenetic derep, PINK1 modulator
> N[C@@H](Cc1ccc(N(CCCl)CCCl)cc1)C(=O)O
    -1, x, 2.5µM*, 0%, x, -1%
> COP(=S)(OC)Oc1ccc([N+](=O)[O-])cc1
    x, x, x, x, 0%, -1%
> CCN(CCNc1ccc([N+](=O)[O-])c2cccnc12)S(=O)(=O)c1ccccc1
    0, -6%, -1%, -2%, u, 40µM*
> CC(=O)O[C@@H]1C[C@@]2(C)C(c3ccoc3)C[C@H]3O[C@]32[C@]2(C)C(=O)C(O)=C3C(C)(C)C(=O)C=C[C@]3(C)C12 (some centres undefined)
    x, x, x, x, 2%, x
> C/C=C1/C[N@@+]2(C)CC[C@]34C(=C(C=O)[C@H]1C[C@H]32)Nc1ccccc14
    x, x, x, x, 0%, x
> Cn1c(NN=O)nc2ccccc21
    -4, -17%, 0%, u, 11µM*, -1%
> N#CC(C#N)=NNc1ccc(OC(F)(F)F)cc1
    x, x, x, x, 1%, x
> Cc1cccc(-n2c(/C=C/c3c(C)[nH]c4ccccc34)nc3ccccc3c2=O)c1
    x, -5%, x, x, 4µM*, 26%
> Cc1cccc(-n2c(/C=C/c3ccccc3O)nc3ccccc3c2=O)c1
    x, u, x, x, 1%, 0%
> O=[N+]([O-])c1ccc(Cl)c(Cl)c1Cl
    0, x, 2%, 0%, x, 0%
> Cc1c(NS(=O)(=O)c2ccccc2)ccc([N+](=O)[O-])c1Cl
    0, x, 2%, x, x, 16µM*
> CCNC(=O)[C@H]1O[C@@H](n2cnc3c(N)ncnc32)[C@H](O)[C@H]1O
    x, x, x, x, 1%, x
> CCOc1cccc(=NC2CCCCC2)c2c(C)n(C)c(C)c12
    -1, u, -12%, -4%, 0%, 16µM*
> CN(C)c1ccc(CN2CCc3nc(N4CCN(c5ccccn5)CC4)ncc3C2)cc1
    x, u, x, x, -5%, 2%
> O=[N+]([O-])c1ccc(-c2[se]c3ccccc3c2I)cc1
    x, x, x, x, -1%, x
> Cc1cc2c(C(F)(F)F)cc(=O)oc2c2c1NCCC2
    2, -3%, -2%, 2%, 0%, x
> O=c1cc(C(F)(F)F)c2cc3c4c(c2o1)CCCN4CCC3
    18, 1%, -3%, 8%, 7.1µM*, -1%
> C=C(C)C1CCC(C)=CC1c1c(O)cc(O)cc1CCCCC (centres undefined)
    x, x, x, x, 6%, x
> CC1(C)OC(c2ccccc2)=C/C(=C/C=C2C(=O)NC(=S)NC2=O)O1
    12, 3%, -11%, 0%, -4%, u
> CN1/C(=C\C=C2C(=O)NC(=S)NC2=O)C(C)(C)c2ccccc21
    25, 0%, -8%, -3%, 18µM*, 35µM*

Next section, starting with the last 5 of the part before.
Sequence of screens – IL2 activator, miR-21 reporter, uPA surface inh, p53 reactivator, Epigenetic derep, PINK1 modulator
> Cc1cc2c(C(F)(F)F)cc(=O)oc2c2c1NCCC2
    2, -3%, -2%, 2%, 0%, x
> O=c1cc(C(F)(F)F)c2cc3c4c(c2o1)CCCN4CCC3
    18, 1%, -3%, 8%, 7.1µM*, -1%
> C=C(C)C1CCC(C)=CC1c1c(O)cc(O)cc1CCCCC (centres undefined)
    x, x, x, x, 6%, x
> CC1(C)OC(c2ccccc2)=C/C(=C/C=C2C(=O)NC(=S)NC2=O)O1
    12, 3%, -11%, 0%, -4%, u
> CN1/C(=C\C=C2C(=O)NC(=S)NC2=O)C(C)(C)c2ccccc21
    25, 0%, -8%, -3%, 18µM*, 35µM*
> CCN(CC)C(=O)c1ccc(NC(=O)CCCSc2ccccc2)cc1
    -2, 1%, 3%, -1%, -7%, 0%
> CCN(CC)C(=O)c1ccc(NC(=O)Nc2ccccc2F)cc1
    0, 14%, 4.5µM*, -6%, 15%, 2%
> CC[C@]1(O)CC(O[C@@H]2CC(N(C)C)C(O)C(C)O2)c2c(cc3c(c2O)C(=O)c2c(O)cccc2C3=O)C1C(=O)OC (some centres undefined)
    x, x, x, x, 6.3µM*, x
> C[C@H](N)C(=O)N[C@@H](C)C(=O)N[C@@H](Cc1ccccc1)C(=O)CCl
    x, x, x, x, 1%, x
> O=C1C(Cl)=C(Cl)C(=O)C(Cl)=C1Cl
    x, x, x, x, 1%, x
> CC(=O)c1sc(NC(=O)CCS(=O)(=O)c2ccc(C)cc2)nc1C
    -3, x, 11µM*, u, x, -5%
> CCOC(=O)c1ccsc1NC(=O)CCS(=O)(=O)c1ccccc1
    -5, 19%, u, -30%, x, 18%
> CCOc1cccc(CC(=O)NCc2ccc3c(c2)CCN3C(=O)c2cccc(C)c2)c1OCC
    x, u, x, x, 3%, -1%
> COc1cc2c(cc1OC)[C@@H]1C(=O)c3ccc(OC)c(CC=C(C)C)c3OC1CO2 (some centres undefined)
    x, x, x, x, -2%, 20µM*
> CN(C)c1ccc(N=Cc2c(O)n(CCC3=CCCCC3)c(=O)[nH]c2=O)cc1
    206*, 1%, x, 1%, u, u
> CCN(CC)c1ccc(N=Cc2c(O)n(CCC3=CCCCC3)c(=O)[nH]c2=O)cc1
    -2, 1%, 5%, -5%, 22µM*, u
> O=c1ccc2cc(O[C@H]3OC(CO)C(O)C(O)C3O)c(O)cc2o1 (some centres undefined)
    x, x, x, x, 0%, x
> O=C1c2ccccc2-c2cccc3cccc1c23
    1, x, 8.9µM*, x, 0%, 2%
> Cc1ccc(-c2nc3c(=O)n(C)c(=O)nc-3n(C)n2)cc1
    x, x, x, x, x, -1%
> Cn1ncnc2c(=O)n(C)c(=O)nc1-2
    -2, u, 1.1µM*, -69%, 4%, -4%
> Cc1c2ccncc2c(C)c2c1[nH]c1ccccc12
    0, u, 0.89µM*, -5%, u, -1%
> c1ccc2c(c1)[nH]c1cnccc12
    1, -8%, 8%, 0%, -4%, 0%
> OC[C@H]1O[C@@H](n2cnc3cc(Cl)c(Cl)cc32)[C@H](O)[C@@H]1O
    0, x, 8.9µM*, 1%, x, 4%
> OC[C@H]1O[C@@H](n2cnc3cc(Cl)c(Cl)cc32)[C@H](O)[C@H]1O
    x, x, x, x, 0%, x
> Oc1ccc(-c2cccnc2)cc1CNC1CN2CCC1CC2 (centres undefined)
    x, x, x, x, x, 0%

New compounds follow.
Short keys: A = IL2 activator; B = miR-21 reporter; C = uPA surface inh; D = p53 reactivator; E = Epigenetic derep; F = PINK1 modulator
Molecule: O=C(Nc1nnc(-c2ccc3c(c2)CCCC3)o1)c1ccccc1
  A: -1	B: 1%	C: 10µM*	D: 11%	E: -1%	F: 1%

Molecule: Cc1ccc(N/C=C2/Sc3ccccc3NC2=O)cc1
  A: 28	B: -62%	C: u	D: u	E: u	F: 40µM*

Molecule: O=C1Nc2cc(C(=O)N3CCC4(CC3)OCCO4)ccc2S/C1=C\c1ccccc1
  A: -2	B: 22%	C: -3%	D: 3%	E: x	F: 0%

Molecule: N[C@]1(C(=O)O)CC[C@@H](C(=O)O)C1 (racemic)
  A: x	B: x	C: x	D: x	E: 2%	F: x

Molecule: CC12CCC(=O)C=C1CCC1C2CCC2(C)C(O)CCC12 (centres undefined)
  A: -3	B: -21%	C: 5%	D: 0%	E: -1%	F: 0%

Molecule: C[C@]12CC[C@H]3[C@@H](CCC4=CC(=O)CC[C@@]43C)[C@@H]1CC[C@@H]2C(=O)CO
  A: -1	B: -18%	C: 4µM*	D: 5%	E: 1%	F: 0%

Molecule: CCOc1ccc(-c2c(C)n(-c3ccc(OCC)cc3)c3[n+]2CCCCC3)cc1
  A: 0	B: u	C: -17%	D: -1%	E: 1%	F: 10µM*

Molecule: O=[N+]([O-])c1ccc(N2CCCCC2)c2ncccc12
  A: 0	B: -20%	C: 0%	D: 13%	E: -1%	F: 0%

Molecule: O=[N+]([O-])c1ccc(N2CCCCCC2)c2nonc12
  A: -2	B: -39%	C: -8%	D: x	E: x	F: 40µM*

Molecule: CC(=O)[C@@H]1CC[C@H]2[C@@H]3CC[C@@H]4CC(=O)CC[C@]4(C)[C@H]3CC[C@]12C
  A: x	B: x	C: x	D: x	E: 1%	F: x
